Reference: patent publication US20190328687A1, “Antibacterial Compounds” (priority 2014, published 2019)

Key:
[1] = tested on: Bacillus thuringiensis P.1.IPS-80 serovar israelensis; assay: Growth inhibition of Gram positive bacteria: IC50 measurements; details: 4 h, read-out: IC50 against Bacillus thuringiensis P.1.IPS-80 serovar israelensis
E. coli DH5a = details: niclosamide 40 μM down to 20 nM

SMILES | IC50 [1] | Resistance of DH5a compared with 7KO (E. coli DH5a)
CC(=O)Oc1ccccc1C(=O)Nc1ncc([N+](=O)[O-])s1 [Nitazoxanide, 2-acetyloxy-N-(5-nitro 2-thiazolyl)benzamide] | 8.67 µM | 
O=C(Nc1ccc([N+](=O)[O-])cc1Cl)c1cc(Cl)ccc1O [Niclosamide, N-(2′-chloro-4′-nitrophenyl)-5-chlorosalicylamide] | 0.139 µM | more resistant to niclosamide than the 7KO strain
